Earlier results, collected in paper PMC8400941, “Preclinical Toxicity and Safety of MM-129—First-in-Class BTK/PD-L1 Inhibitor as a Potential Candidate against Colon Cancer” (Pharmaceutics, 2021).

What was measured:
[1] = design: method as in PMID 24079553; conditions: cited from earlier work
[2] = test system: patients; conditions: 800 mg twice daily; cited from earlier work

CC[C@H](CO)Nc1nc(NCc2ccccc2)c2ncn(C(C)C)c2n1 [seliciclib]
time within which metabolized [1]: ≤ 24 h | liver function in patients [2]: reversible abnormal liver function
